Reference: patent publication US4866091A, “Alkanesulfonanilide derivatives, processes for preparation thereof and pharmaceutical composition comprising the same” (Fujisawa Pharmaceutical Co., Ltd., priority 1986, dated 1989)
Where two headings read alike, the source gives them in different places.

Test system: adjuvant arthritis in rats
Conditions: orally once a day for 23 days

Compound	Inhibition of Secondary Lesion (uninjected paw) (dose level 0.32 mg/kg) [%]	Inhibition of Secondary Lesion (uninjected paw) (dose level 1.0 mg/kg) [%]	Inhibition of Secondary Lesion (uninjected paw) (dose level 3.2 mg/kg) [%]
CS(=O)(=O)Nc1ccc(C#N)cc1Oc1ccc(F)cc1F.[Na] [Example 73, 4'-cyano-2'-(2,4-difluorophenoxy)methanesulfonanilide sodium salt]	59.0	81.3	–
COc1ccc2cc([C@H](C)C(=O)O)ccc2c1 [Naproxen, reference compound]	37.0	–	67.1
